According to patent US20240245770A1, “COMPOSITIONS AND METHODS FOR TREATING NEUROMUSCULAR DISORDERS” (The Regents of the University of California, priority 2019, published 2024):

System: oral squamous carcinoma stem cells (OSCSCs)
Assay: 51Cr release cytotoxicity of treated purified NK cells against OSCSCs
Type: cell-based, human
Experimental: The ^51Cr release assay was performed as described previously. Patient-derived OSCSCs were used as a specific and sensitive NK targets to assess NK cell-mediated cytotoxicity. Briefly, different numbers of effector cells were incubated with ^51Cr-labeled OSCSCs. After 4-hour incubation the supernatants were harvested from each sample and counted on a gamma counter. The percentage specific cytotoxicity was calculated using the following formula:
Lytic unit 30/10^6 is calculated by using the inverse of the number of effector cells needed to lyse 30% of tumor target cells×100.
NK cells were isolated from PBMCs as described in the materials and methods section. Purified NK cells were left untreated, or treated with IL-2 (1000 U/mL) or treated with the combination of IL-2 and anti-CD16 mAb (3 μg/ml). After an overnight incubation, the NK cell mediated cytotoxicity was measured using a standard 4-hour chromium release assay against oral squamous carcinoma stem cells (OSCSCs). The lytic units 30/10^6 cells were determined using inverse number of NK cells required to lyse 30% of the target cells×100. No significant differences in NK cytotoxicity by purified NK cells between the donors (FIG. 2C).
NK cytotoxicity. NK cells were isolated from PBMCs as described in the materials and methods section. Purified NK cells were left untreated, or treated with IL-2 (1000 U/mL) or treated with the combination of IL-2 and anti-CD16 mAb (3 μg/ml) or IL-2+sAJ2 (Cells:sAJ2 1:20). After an overnight incubation, the NK cell mediated cytotoxicity was measured using a standard 4-hour chromium release assay against oral squamous carcinoma stem cells (OSCSCs). The lytic units 30/10^6 cells were determined using inverse number of NK cells required to lyse 30% of the target cells×100 (Table 19).

Recombinant human IL-2
NK cytotoxicity (H66 JC (ALS) NK): 117.87 lytic units 30/10^6 cells
NK cell cytotoxicity (H80 DM NK): 25.28 lytic units 30/10^6 cells
NK cell cytotoxicity (H81 JC (ALS) NK): 44.80 lytic units 30/10^6 cells
NK cell cytotoxicity (H82 TC (healthy twin) NK): 36.37 lytic units 30/10^6 cells
NK cytotoxicity (H84 JC NK alone): 104.22 lytic units 30/10^6 cells
NK cytotoxicity (H85 TC NK alone): 72.62 lytic units 30/10^6 cells
NK cytotoxicity in purified NK cells, Mean (H171 JC NK, ALS): 57.06
NK cytotoxicity in purified NK cells, Mean (H172 TC NK, control twin): 69.13
cytotoxicity of NK cells, Mean (H174 JC NK, ALS): 142.1
cytotoxicity of NK cells, Mean (H175 TC NK, control twin): 154.9
NK cytotoxicity, Mean (H195 RS NK, Table 204): 17.21
NK cytotoxicity, Mean (H196 TC NK, Table 204): 19.53
NK cytotoxicity, Mean (H211 JC NK (ALS patient)): 81.51
NK cytotoxicity, Mean (H213 JC NK (ALS patient)): 157.04
NK cytotoxicity, Mean (H214 TC NK (twin control)): 80.80
NK cell cytotoxicity (KZ sNK (day 17)): 89.02 lytic units 30/10^6 cells
LU AVERAGE (NK H140 JC): 167.50 LU 30/106 cells
LU AVERAGE (NK H141 RS): 14.79 LU 30/106 cells
LU AVERAGE (NK H142 JS): 58.61 LU 30/106 cells
lytic units 30/10^6 cells, Mean (NK H143 JC): 117.46 lytic units 30/10^6 cells
lytic units 30/10^6 cells, Mean (NK H144 TC): 205.18 lytic units 30/10^6 cells
lytic units 30/10^6 cells, Mean (NK H145 WO): 171.54 lytic units 30/10^6 cells
NK cytotoxicity, Mean (NK cells of H109 RS1 (ALS patient, Pre-NAC)): 331.64 lytic units 30/10^6 cells
NK cytotoxicity, Mean (NK cells of H110 RS2 (ALS patient, Post-NAC)): 373.11 lytic units 30/10^6 cells
NK cytotoxicity, Mean (NK cells of H111 AK (control)): 131.16 lytic units 30/10^6 cells
NK cytotoxicity, Mean (NK cells of H117 JC (ALS)): 36.93 lytic units 30/10^6 cells
NK cytotoxicity, Mean (NK cells of H118 TC (control twin)): 55.72 lytic units 30/10^6 cells
NK cytotoxicity, Mean (NK cells of P99 ME (control)): 72.37 lytic units 30/10^6 cells
51Cr release NK Mean (NK of H102 JC): 49.62 lytic units 30/10^6 cells
51Cr release NK Mean (NK of H103 TC): 157.59 lytic units 30/10^6 cells
51Cr release NK Mean (NK of H104 RS (another patient with ALS)): 144.55 lytic units 30/10^6 cells
NK cytotoxicity (P66 LP NK): 218.17 lytic units 30/10^6 cells
NK cell cytotoxicity (P82 SS NK): 37.57 lytic units 30/10^6 cells
lytic units 30/10^6 cells, Mean (P113 HA NK): 218.54 lytic units 30/10^6 cells
Lytic units, Mean (P153 NK): 94.51 Lu70/10^6
NK cell cytotoxicity (RO sNK (day 17)): 45.50 lytic units 30/10^6 cells
NK cell mediated cytotoxicity (Table 6, H53 NK alone, row 2.5): 26.5
NK cell mediated cytotoxicity (Table 6, H53 NK alone, row 5): 43.7
NK cell mediated cytotoxicity (Table 7, H53 NK alone, row 2.5): 26.5
NK cell mediated cytotoxicity (Table 7, H53 NK alone, row 5): 43.7
NK cell mediated cytotoxicity (Table 8, H53 NK alone, row 2.5): 26.5
NK cell mediated cytotoxicity (Table 8, H53 NK alone, row 5): 43.7
NK cell mediated cytotoxicity (Table 10, H52 TC NK alone, row 2.5): 51.4
NK cell mediated cytotoxicity (Table 10, H52 TC NK alone, row 5): 77.7
NK cell mediated cytotoxicity (Table 11, H52 TC NK alone, row 2.5): 51.4
NK cell mediated cytotoxicity (Table 11, H52 TC NK alone, row 5): 77.7
NK cytotoxicity, Mean (printed H211 JC NK): 46.58
